# Literature values, collected in patent US8895522B2, “Composition and method for the prevention, treatment and/or alleviation of an inflammatory disease” (Index Pharmaceuticals AB, priority 2005, dated 2014).
# B1: INF-beta: interferon-beta given i.v. in the cited ulcerative colitis pilot study (protein, UniProt P01574 22-187, looked up)
# Interferon beta: MSYNLLGFLQRSSNFQCQKLLWQLNGRLEYCLKDRMNFDIPEEIKQLQQFQKEDAALTIYEMLQNIFAIFRQDSSSTGWNETIVENLLANVYHQINHLKTVLEEKLEKEDFTRGKLMSSLHLKRYYGRILHYLKAKEYSHCAWTIVRVEILRNFYFINRLTGYLRN
# Test system: corticosteroid refractory ulcerative colitis patients
# Conditions: i.v., cited from earlier work
molecule,measurement,setting,value
B1,patients in remission,"22 of the 25 patients, within 3 weeks, all on corticosteroids",88%
same,mean length of response,corticosteroid refractory ulcerative colitis,13 months
